Article PMC8419314, “Characterization of Compound-Specific, Concentration-Independent Biophysical Properties of Sodium Channel Inhibitor Mechanism of Action Using Automated Patch-Clamp Electrophysiology” (Frontiers in Pharmacology, 2021)
Where “and” joins values, the source holds several entries; their conditions need not be identical. Equal values may be shown once. Read-outs that look alike come from different tables or passages of the source.

Amino acid sequences for entries named in this document (tags omitted).
UniProt P15390, whole entry: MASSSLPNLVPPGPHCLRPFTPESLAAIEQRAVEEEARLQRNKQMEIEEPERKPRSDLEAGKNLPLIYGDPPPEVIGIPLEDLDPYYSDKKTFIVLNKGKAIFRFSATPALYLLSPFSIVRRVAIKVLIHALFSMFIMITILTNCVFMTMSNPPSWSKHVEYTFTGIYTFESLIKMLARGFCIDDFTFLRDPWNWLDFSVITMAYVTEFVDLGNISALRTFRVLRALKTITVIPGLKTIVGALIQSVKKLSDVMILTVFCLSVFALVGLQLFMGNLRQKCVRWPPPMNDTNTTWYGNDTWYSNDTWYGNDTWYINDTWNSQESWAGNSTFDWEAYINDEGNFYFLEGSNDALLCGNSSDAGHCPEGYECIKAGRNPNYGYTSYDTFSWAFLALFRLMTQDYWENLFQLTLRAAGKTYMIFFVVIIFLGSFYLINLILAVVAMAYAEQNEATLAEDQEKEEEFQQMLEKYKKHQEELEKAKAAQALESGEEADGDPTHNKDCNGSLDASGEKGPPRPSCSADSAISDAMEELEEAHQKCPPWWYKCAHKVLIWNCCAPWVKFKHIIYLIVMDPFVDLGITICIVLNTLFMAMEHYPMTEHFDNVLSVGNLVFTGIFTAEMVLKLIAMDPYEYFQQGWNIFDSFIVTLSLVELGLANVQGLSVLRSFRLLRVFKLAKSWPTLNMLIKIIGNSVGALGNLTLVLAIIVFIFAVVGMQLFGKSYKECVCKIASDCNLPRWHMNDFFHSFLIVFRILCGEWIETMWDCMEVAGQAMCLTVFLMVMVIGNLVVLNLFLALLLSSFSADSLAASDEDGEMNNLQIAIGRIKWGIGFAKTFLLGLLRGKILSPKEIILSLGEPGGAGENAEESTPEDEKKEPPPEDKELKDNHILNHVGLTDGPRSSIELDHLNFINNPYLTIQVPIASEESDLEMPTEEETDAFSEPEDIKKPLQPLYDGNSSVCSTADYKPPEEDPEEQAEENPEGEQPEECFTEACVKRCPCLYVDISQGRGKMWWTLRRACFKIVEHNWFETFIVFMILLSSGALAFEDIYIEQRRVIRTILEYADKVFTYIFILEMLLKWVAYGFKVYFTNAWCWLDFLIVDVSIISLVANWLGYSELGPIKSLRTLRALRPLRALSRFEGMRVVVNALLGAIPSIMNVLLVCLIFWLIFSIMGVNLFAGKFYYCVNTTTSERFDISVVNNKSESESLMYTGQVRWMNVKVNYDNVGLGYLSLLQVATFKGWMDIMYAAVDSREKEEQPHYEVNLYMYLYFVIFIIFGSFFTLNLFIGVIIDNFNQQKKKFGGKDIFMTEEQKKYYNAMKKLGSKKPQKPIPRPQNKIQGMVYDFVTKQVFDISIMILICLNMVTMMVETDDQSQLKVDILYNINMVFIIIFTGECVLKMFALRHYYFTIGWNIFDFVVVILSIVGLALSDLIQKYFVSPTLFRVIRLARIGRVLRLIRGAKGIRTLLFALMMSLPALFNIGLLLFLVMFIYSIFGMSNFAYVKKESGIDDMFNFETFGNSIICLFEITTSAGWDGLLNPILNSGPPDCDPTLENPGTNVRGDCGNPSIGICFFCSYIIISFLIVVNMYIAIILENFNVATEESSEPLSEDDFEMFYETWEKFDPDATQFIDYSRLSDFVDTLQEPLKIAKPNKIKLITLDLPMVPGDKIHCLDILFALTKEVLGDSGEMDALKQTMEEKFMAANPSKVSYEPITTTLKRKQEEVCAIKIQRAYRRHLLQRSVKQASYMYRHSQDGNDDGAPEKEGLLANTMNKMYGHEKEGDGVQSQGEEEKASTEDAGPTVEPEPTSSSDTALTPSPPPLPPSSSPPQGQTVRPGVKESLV

How the values were obtained:
[1] = target: T1, rNaV1.4 channel (Rattus norvegicus, UniProt P15390); assay: automated patch-clamp 17-pulse protocol (SDO, RFI, SSI), IonFlux Mercury, cell ensembles; assay type: cell-based
T1 construct: expressed in transfected cells; host or cells: HEK 293
Method: Cell culture and electrophysiology were done as described in the accompanying paper ([Lukacs et al., 2021]). The recombinant rNaV1.4 channel-expressing cell line was generated as described before ([Lukacs et al., 2018]). Transfected HEK 293 cells were maintained in Dulbecco’s Modified Eagle Medium, high glucose supplemented with 10% v/v fetal bovine serum, 100 U/ml of penicillin/streptomycin, and 0.4 mg/ml Geneticin (Life Technologies, Carlsbad, CA). For experiments, cells were dissociated from culture dishes with Accutase (Corning), shaken in serum-free medium for 60 min at room temperature, then centrifuged, and resuspended into the extracellular solution to a concentration of 5 × 10^6 cells/mL. Voltage-clamp recordings were performed on an IonFlux Mercury instrument (Fluxion Biosciences). The composition of solutions (in mM) was: Intracellular solution: 50 CsCl, 10 NaCl, 60 CsF, 20 EGTA, and 10 HEPES; pH 7.2 (adjusted with 1 M CsOH). Extracellular solution: 140 NaCl, 4 KCl, 1 MgCl2, 2 CaCl2, 5 D-Glucose, and 10 HEPES; pH 7.4 (adjusted with 1 M NaOH). The osmolality of intra-and extracellular solutions was set to ∼320 and ∼330 mOsm, respectively. Data were sampled at 20 kHz, and filtered at 10 kHz. Experiments were carried out at room temperature.
Each zone consists of 8 separate sections, which are distinct functional units, containing 12 wells: one well for the cell suspension, one well for the waste, two cell “traps” (intracellular solution-filled wells under negative pressure to establish high resistance seals and then whole-cell configuration), and eight compound wells. […] Two kinds of microfluidic plates are manufactured: In single-cell plates, each cell trap contains a single hole and therefore catches a single cell. In “ensemble plates” there are 20 holes in each cell trap, and 20 cells are recorded simultaneously. […] From the 16 cell ensembles of each zone, we chose n = 6 ensembles for analysis.
We used a complex 17-pulse voltage protocol (Figure 1A), described in detail in the accompanying paper ([Lukacs et al., 2021]), which allowed the assessment of gating kinetics and gating equilibrium in the absence and the presence of inhibitor/modulator compounds. The protocol investigated the effect of different durations of depolarizations: 2.5, 7.5, 22.5, and 67.5 ms with 2.5 ms hyperpolarizing gaps between them; this section (pulses #1 to #5) is shown by different shades of green in Figure 1, and was named “state-dependent onset” (SDO). Next, pulses #6 to #12, as well as #1 investigated the effect of different durations of hyperpolarizations (1, 2, 4, 8, 16, 32, 64, and 498 ms, separated by 5 ms depolarizations) in the section shown by different shades of blue, and named “recovery from inactivation” (RFI). Finally, pulses #12 to #17 assessed the resting-inactivated equilibrium at different membrane potentials in the section named “steady-state inactivation” (SSI). The three sections were similar to protocols we used in previous studies ([Lukacs et al., 2018]; [Földi et al., 2021]).
In addition to automatic fitting, described in the accompanying paper ([Lukacs et al., 2021]), in this study we used a different approach to process SDO, RFI, and SSI data. […] For each of the 17 pulses peak amplitudes were measured after removing capacitive artifacts and subtracting the leak.

[2] = tested on: sodium channel; conditions: cited from earlier work

KR/KI ratio [1]: 242 and 242 ± 147
micro-offset range [1]: 2 to 10 ms
micro-onset range [1]: 1 to 10 ms
time for micro-offset to be complete [1]: ≤ 10 ms
time for micro-onset to be complete [1]: ≤ 10 ms
Compound: Nc1nc2ccc(OC(F)(F)F)cc2s1 [Riluzole, riluzole]
IC50 ([2]; read-out: IC50 (10 Hz)): 43 µM
IC50 ([2]; read-out: IC50 (50 Hz)): 0.9 µM
